Test system: Cys120Val AmGSTF1
Details: 100 µM, 60 min at 20 °C, diluted 1:100, activity towards CDNB

## NC(CCC(=O)NC(CSc1ccc([N+](=O)[O-])c2nonc12)C(=O)NCC(=O)O)C(=O)O (centres unmarked) [NBD-SG]
  Inhibition vs. DMSO control: 13%
Mean ± SD, n = 3
  Mean specific activity: 22.4 ± 1.6 nmol s-1 mg-1 protein

From publication PMC8564858, “Flavonoid-based inhibitors of the Phi-class glutathione transferase from black-grass to combat multiple herbicide resistance” (Organic & Biomolecular Chemistry, 2021)
